In PubChem BioAssay AID624418 (National Center for Advancing Translational Sciences (NCATS), 2012):
Among all 410,000 compounds or so, about 530 (0.13%) were called active. Listed are the inconclusive results; actives and inactives stand elsewhere. Calls come from the whole dose curve; as a rule, active = well fitted inhibition curve with a large enough effect; inconclusive = small, poorly fitted or top-dose-only effect, or another doubt; inactive = no such curve, though single readings can be large or run the other way.

Assay: qHTS of GLP-1 Receptor Inverse Agonists: Cytotox Screen;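 note: loss of luciferase light is scored as toxicity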
Conditions: HEK293 cAMP-luciferase reporter cells, luminescence, 24 h
Excerpt: The overall goal of this project was to develop a novel assay for discovering small molecule ligands for class B1 G protein-coupled receptors (GPCRs). Very few agonists (or inverse agonists) with generally weak activity for this entire group of physiologically important receptors are known to date. To establish proof-of-principle that this critical bottleneck can be overcome with a suitable screening approach, our studies focused on the class B1 receptor for glucagon-like peptide-1 (GLP-1R), a potential therapeutic target for diabetes and neurodegenerative disease.
The assay was developed using a cell-based functional readout. Toward this goal, stably transfected HEK293 cell clones were established that co-express (i) a cAMP-responsive luciferase reporter gene, and (ii) constitutively active GLP-1R that upon ligand interaction inhibit (inverse agonists) the luciferase activity. In addition, two control cell lines were developed: (i) one that express only the cAMP-responsive reporter gene to enable initial exclusion of GLP-1R independent effects of candidate probes; and (ii) one with the reported gene cloned with another constitutively active orphan receptor GPR119 to enable exclusion of GLP-1R independent inhibitor effects of candidate inverse agonists.
To that end, this assay was optimized for 1536-well format and screened against the MLSMR. Then the same collection was run in this cytotoxicity assay where inhibition was the undesired outcome.
NIH Molecular Libraries Probe Production Network [MLPCN]
NIH Chemical Genomics Center [NCGC]
PI Name: Martin Beinborn, Tufts Medical Center
Six ul of cell suspension (200 cells/uL in DMEM + 10% Nu serum + 1% pen-strep) is dispensed in a white solid 1536-well plate. The plates are incubated for 12 hours at 37 deg C at 5% CO2 followed by addition of 23 nL compounds. After 24 hr incubation at 37 deg C and 5% CO2, 3 uL of luciferase assay detection reagent is added. A luminescence read is obtained on the PerkinElmer Viewlux after 12 min incubation at room temperature.
Potency is the fitted concentration of half-maximal effect.

SMILES | Potency
CN(C)C(=O)c1cc([N+](=O)[O-])cc2c1-c1c(cc([N+](=O)[O-])cc1[N+](=O)[O-])C2=O | inconclusive: 14.1 µM
CSc1ccc(Nc2c([N+](=O)[O-])cc([N+](=O)[O-])cc2[N+](=O)[O-])cc1 | inconclusive: 12.6 µM
O=[N+]([O-])c1ccc(-c2cc([N+](=O)[O-])c(O)c([N+](=O)[O-])c2)cc1 | inconclusive: 28.2 µM
O=[N+]([O-])c1cc([N+](=O)[O-])c(-c2ccn[nH]2)s1 | inconclusive: 10 µM
CC1=CC(=O)OC2CC3OC4C[C@@H](C)C5OC6CC7O[C@]8(C)C/C=C\C9OC%10CC%11OC(CC(C)CO)CC(O)[C@]%11(C)OC%10CC9OC8C[C@]7(C)O[C@]6(C)CCC5OC4C[C@]3(C)OC12 (some centres undefined) | inconclusive: 0.501 µM
C[C@H]1[C@@H](OS(=O)(=O)O)C[C@@H]2C[C@H]([C@@H](O)c3cc(=O)[nH]c(=O)[nH]3)NC3=NC[C@H]1N32 | inconclusive: 5.62 µM
CCc1nc2c(n1)c1c(non1O)c1c2no[n+]1[O-] | inconclusive: 11.2 µM
CC(=O)NC(SC(=S)N(CC(C)C)CC(C)C)C(Cl)(Cl)Cl (centres undefined) | inconclusive: 10 µM
O=c1c2cc([N+](=O)[O-])ccc2[nH]c2c([N+](=O)[O-])cc([N+](=O)[O-])cc12 | inconclusive: 2 µM
